Drawing on ChEMBL document CHEMBL5131376, “Kinase Inhibitors as Underexplored Antiviral Agents” (J Med Chem, 2022), this text covers Kd for one compound.

As usually defined, the Kd is the concentration at which binding is half-saturated.

The target in this assay is T1, Cyclin-G-associated kinase (Homo sapiens, UniProt O14976).
T1 sequence (O14976 whole entry): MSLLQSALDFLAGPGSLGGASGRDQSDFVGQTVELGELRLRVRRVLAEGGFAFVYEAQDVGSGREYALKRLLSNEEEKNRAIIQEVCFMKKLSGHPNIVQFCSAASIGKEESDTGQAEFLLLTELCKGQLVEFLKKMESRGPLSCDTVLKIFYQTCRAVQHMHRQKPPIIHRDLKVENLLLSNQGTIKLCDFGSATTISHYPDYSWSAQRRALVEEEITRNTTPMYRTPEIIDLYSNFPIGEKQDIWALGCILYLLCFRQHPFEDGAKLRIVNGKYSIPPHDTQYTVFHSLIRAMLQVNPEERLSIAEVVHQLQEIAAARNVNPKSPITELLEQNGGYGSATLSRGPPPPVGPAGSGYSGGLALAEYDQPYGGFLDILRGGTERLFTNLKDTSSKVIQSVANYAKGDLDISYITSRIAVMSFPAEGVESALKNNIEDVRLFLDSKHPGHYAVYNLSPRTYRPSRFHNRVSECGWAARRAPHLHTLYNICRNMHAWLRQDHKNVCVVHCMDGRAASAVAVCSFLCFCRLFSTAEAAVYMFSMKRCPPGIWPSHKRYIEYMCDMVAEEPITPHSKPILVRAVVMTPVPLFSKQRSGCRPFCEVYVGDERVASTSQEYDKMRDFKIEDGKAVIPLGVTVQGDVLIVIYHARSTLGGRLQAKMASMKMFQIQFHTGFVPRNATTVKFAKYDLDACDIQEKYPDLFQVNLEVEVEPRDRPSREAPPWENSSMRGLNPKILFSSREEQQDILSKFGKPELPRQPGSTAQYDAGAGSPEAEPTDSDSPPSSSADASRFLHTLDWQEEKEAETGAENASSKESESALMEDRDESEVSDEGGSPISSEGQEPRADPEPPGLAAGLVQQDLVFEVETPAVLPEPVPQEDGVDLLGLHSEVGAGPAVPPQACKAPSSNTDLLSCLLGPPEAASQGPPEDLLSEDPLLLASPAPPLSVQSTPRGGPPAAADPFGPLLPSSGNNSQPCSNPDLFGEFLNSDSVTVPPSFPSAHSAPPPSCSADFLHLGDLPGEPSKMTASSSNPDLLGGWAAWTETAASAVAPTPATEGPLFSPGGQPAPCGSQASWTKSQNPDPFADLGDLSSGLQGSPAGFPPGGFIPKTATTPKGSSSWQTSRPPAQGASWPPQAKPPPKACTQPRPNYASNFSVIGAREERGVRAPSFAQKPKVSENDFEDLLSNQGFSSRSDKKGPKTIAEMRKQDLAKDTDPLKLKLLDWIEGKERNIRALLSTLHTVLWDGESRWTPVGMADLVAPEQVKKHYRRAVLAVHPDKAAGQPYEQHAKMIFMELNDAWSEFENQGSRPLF
The assay can be described thus: Binding affinity to GAK (unknown origin) assessed as dissociation constant.

Turning to `COc1cc(Nc2ccnc3ccc(Br)cc23)cc(OC)c1OC`, the Kd amounted to 3.1 nM.
